Test results: PubChem BioAssay AID743126 (The Scripps Research Institute Molecular Screening Center, 2013)
The list shows a part of the results, in another mix than the full data. The source made the active and inactive calls.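 Rule for the calls: active = inhibition above mean plus 3 SD of compounds lying within the high and low control bounds (cut at about 19% in these data); inactive = the rest.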

The chains behind the UniProt entries cited, without tags or fusion partners. Where a name states a change or a piece, a line headed by the entry shows the natural chain unless it says otherwise.
UniProt Q9NZ20: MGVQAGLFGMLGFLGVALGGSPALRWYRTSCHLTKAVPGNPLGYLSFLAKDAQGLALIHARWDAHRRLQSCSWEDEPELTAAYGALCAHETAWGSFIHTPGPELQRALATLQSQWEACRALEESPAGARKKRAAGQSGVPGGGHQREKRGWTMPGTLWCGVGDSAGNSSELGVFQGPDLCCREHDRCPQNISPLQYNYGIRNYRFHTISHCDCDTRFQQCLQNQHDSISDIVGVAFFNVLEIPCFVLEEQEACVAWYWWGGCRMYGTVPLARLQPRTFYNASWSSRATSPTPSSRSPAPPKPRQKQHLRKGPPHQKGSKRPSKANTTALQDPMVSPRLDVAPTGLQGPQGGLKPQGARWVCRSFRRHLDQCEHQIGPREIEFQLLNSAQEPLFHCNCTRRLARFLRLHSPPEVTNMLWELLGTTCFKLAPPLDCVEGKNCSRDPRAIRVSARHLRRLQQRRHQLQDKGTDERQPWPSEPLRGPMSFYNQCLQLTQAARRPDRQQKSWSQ

target: Group 3 secretory phospholipase A2 (Homo sapiens) (UniProt Q9NZ20); experiment: human group III sPLA2 inhibitors, primary screen, biochemical, QFRET, BODIPY PC-A2 liposome substrate (AID 743126); conditions: QFRET BODIPY PC-A2 liposome hydrolysis, fluorescence; at 12.2 µM; hits give high values;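 note: 0% = median of test compound wells and 100% = no enzyme DMSO wells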

SMILES | inhibition
O=P1(N(CCCl)CCCl)OCCCS1 (configuration not stated) | inactive: -0.48%
O=C(Nc1cc([As](=O)(O)O)ccc1O)c1ccccc1 | inactive: 4.68%
O=[N+]([O-])c1ncn(CCn2ncnc2[N+](=O)[O-])n1 | inactive: 5.4%
CC(C)(C)C(=O)NC(Sc1ccncn1)C(Cl)(Cl)Cl (configuration not stated) | inactive: 3.07%
O=C(O)CNc1ccc([As](=O)(O)O)cc1 | inactive: 4.34%
COC(=O)C1(C)COP(=O)(Nc2ccccc2)OC1 (configuration not stated) | inactive: 18.2%
O=[N+]([O-])c1cccc(NC2=NCC(CBr)S2)c1 (configuration not stated) | inactive: 6.73%
COc1ccc(C2=NCC(CBr)S2)cc1 (configuration not stated) | inactive: -3.84%
CCc1nc2c(n1)c1c(non1O)c1c2no[n+]1[O-] | inactive: 6.12%
O=[N+]([O-])c1cc([N+](=O)[O-])c(CCNc2ccccc2)c([N+](=O)[O-])c1 | inactive: 15.7%
Cc1ccc(NP(=O)(Oc2ccccc2)Oc2ccccc2)nc1 | inactive: 5.43%
O=[N+]([O-])c1cccc2n[nH]nc12 | inactive: 12.5%
CC(=O)N1C2C3N(C(C)=O)C1C1N(C(C)=O)C(C(N1C(C)=O)N3C(C)=O)N2C(C)=O | inactive: -1.68%
CCN(/C(=N/P(=O)(N1CCOCC1)N1CCOCC1)N1CCOCC1)c1ccc(OC)cc1 | inactive: -2.67%
C[N+]1=C2C=CC=CC=C2SC12C([N+](=O)[O-])=CC([N+](=O)[O-])=C[C-]2[N+](=O)[O-] (configuration not stated) | inactive: -10.9%
Nc1ccc([As](=O)(O)c2ccc(N)cc2)cc1 | inactive: 9.78%
CC1CCN(C(=O)Oc2c(Cl)cc(Cl)c3cccnc23)CC1 | inactive: -10.8%
c1cc(-c2nn[nH]n2)ccc1-c1nn[nH]n1 | inactive: 1.32%
CN(C)C(=O)OCCc1n(C)cc[n+]1C | inactive: -3.25%
CC(C)c1nc(Nc2ccccc2)n(P(=O)(N(C)C)N(C)C)n1 | inactive: 1.83%
CC(C)=N/N=C(\N)N[N+](=O)[O-] | inactive: 3.08%
Cc1ccc(N/C(=N/P(=O)(N2CCOCC2)N2CCOCC2)N2CCOCC2)cc1 | inactive: -5.13%
CN(C(=O)Cc1ccc(Cl)c(Cl)c1)[C@H]1CCCC[C@H]1N1CCCC1 | inactive: -3.13%
NC(=O)c1cc([N+](=O)[O-])cc([N+](=O)[O-])c1N | inactive: 0.17%
CN1CCCC(OC(=O)C(c2ccccc2)c2ccccc2)C1 (configuration not stated) | inactive: -7.94%
Clc1ccc(Cl)c(NC2=NCC(CBr)S2)c1 (configuration not stated) | inactive: -2.83%

SMILES | inhibition
Cc1ccc(OP(=O)(Nc2nccs2)Oc2ccc(C)cc2)cc1 | inactive: 2.99%
COc1ccccc1OP(=O)(Nc1ccc(C)cn1)Oc1ccccc1OC | inactive: 11%
O=C(NC(Sc1ccncn1)C(Cl)(Cl)Cl)c1ccccc1 (configuration not stated) | active: 21.6%
Oc1ccccc1CNc1ccccn1 | inactive: 3.48%
Nc1cc(N)c2nonc2c1[N+](=O)[O-] | inactive: -0.74%
CC(C)CC(=O)NC(Sc1ccc(Cl)cc1)C(Cl)(Cl)Cl (configuration not stated) | inactive: 8.89%
O=P(Nc1nc2ccc(Cl)cc2s1)(c1ccccc1)c1ccccc1 | inactive: -30.4%
CN(C)P(=O)(N(C)C)n1c(Nc2ccccc2)nnc1-c1ccccc1 | inactive: -12.5%
CCCC1OP(N)(=O)OCC1CC (configuration not stated) | inactive: 9.54%
CC(=O)Nc1ccc([As](=O)(O)O)cc1 | inactive: 13%
O=C(O)c1ccccc1[As](=O)(O)O | inactive: 1.72%
CCn1c(=O)n(C2CCN(CC3CCCCCCC3)C[C@H]2CO)c2ccccc21 (some centres not stated) | inactive: -6.32%
Cc1ccc(NP(=O)(Oc2ccccc2F)Oc2ccccc2F)nc1 | inactive: 2.46%
CN(C(=O)Cc1ccc(Cl)c(Cl)c1)[C@H]1CCCC[C@@H]1N1CCCC1 | inactive: 5.75%
Cc1cc(SC(NC(=O)c2ccc(F)cc2)C(Cl)(Cl)Cl)ncn1 (configuration not stated) | inactive: -4.76%
CCOP(=O)(Nc1ccccc1)OCC | inactive: -5.16%
Nc1cccc2ccc([As](=O)(O)O)cc12 | inactive: 2.21%
CCN(N=Nc1nonc1N)c1nonc1N | inactive: -5.32%
CN(C(=O)Cc1ccccc1)C1CC[C@@]2(CCCO2)C[C@@H]1N1CCCC1 (some centres not stated) | inactive: -4.82%
Cc1ccc(NP(=O)(Oc2cccc(C)c2)Oc2cccc(C)c2)nc1 | inactive: -3.79%
c1ccc(-c2nn[nH]n2)c(-c2nn[nH]n2)c1 | inactive: -1.93%
CCNC(=S)/N=C(\N)N[N+](=O)[O-] | inactive: 0.16%
O=C(NC1CCS(=O)(=O)C1)NP(=S)(Oc1ccccc1)Oc1ccccc1 (configuration not stated) | inactive: -8.8%
O=P1(N(CCCl)CCCl)OCCC2CCCCN21 (configuration not stated) | inactive: 5.24%
CCC(=O)N1C2C3N(C(=O)CC)C1C1N(C(=O)CC)C(C(N1C(=O)CC)N3C(=O)CC)N2C(=O)CC | inactive: 2.79%
O=C(OC1CN2CCC1CC2)c1ccccc1 (configuration not stated) | inactive: 6.26%

SMILES | inhibition
CC(=O)NC(SC(=S)N(CC(C)C)CC(C)C)C(Cl)(Cl)Cl (configuration not stated) | inactive: 1.65%
Cc1ccc(OP(=O)(Nc2ccccn2)Oc2ccc(C)cc2)cc1 | inactive: -7.03%
COC(=O)c1cc2c(s1)N=C(c1ccccc1)N(C)P2(=O)N1CCOCC1 (configuration not stated) | inactive: -0.54%
O=c1c2cc([N+](=O)[O-])ccc2[nH]c2c([N+](=O)[O-])cc([N+](=O)[O-])cc12 | inactive: -7.57%
CN(C)C(=O)Oc1noc2ccccc12 | inactive: -3.5%
CC(NC(=O)COC(=O)C(O)(c1ccccc1)c1ccccc1)c1ccccc1 (configuration not stated) | inactive: -6.41%
Cc1ccccc1OP(=O)(Nc1ccccn1)Oc1ccccc1C | inactive: 7.32%
CCOc1ccc(C2=NCC(CBr)S2)cc1 (configuration not stated) | inactive: 0.81%
O=P1(Nc2nc3ccc(Cl)cc3s2)COc2ccccc2O1 (configuration not stated) | inactive: -1.1%
CC(C)(C)C(=O)NC(Sc1ccccc1)C(Cl)(Cl)Cl (configuration not stated) | inactive: 2.21%
CCc1cc(O)c([N+](=O)[O-])c(C)c1[N+](=O)[O-] | inactive: -10.4%
C[C@H]1OP(=O)(Oc2ccccc2)C[C@@H]2O[C@@H]21 (some centres not stated) | inactive: 5.09%
C[C@@H]1C=CCP(=O)(Oc2ccccc2)O1 (some centres not stated) | inactive: 6.17%
Cc1ccccc1CN(C)C(=O)COC(=O)C(O)(c1ccccc1)c1ccccc1 | inactive: -7.29%
COC(=O)C1(C)COP(=O)(NCc2ccccc2)OC1 (configuration not stated) | inactive: 13.7%
CC(=O)c1ccc(N2CC2c2ccncc2)cc1 (configuration not stated) | inactive: -1.06%
N#C/C(=C\c1ccc(N(CCBr)CCBr)cc1)C(N)=O | inactive: -2.84%
CC(=O)Nc1ccc(Oc2c([N+](=O)[O-])cc([N+](=O)[O-])cc2[N+](=O)[O-])cc1 | inactive: 1.52%
CC(=O)Nc1ccc([As](=O)(O)O)c(O)c1 | inactive: 0.1%
CC(C)C(=O)NC(Sc1ccccc1)C(Cl)(Cl)Cl (configuration not stated) | inactive: 9.95%
O=P(Nc1nccs1)(c1ccccc1)c1ccccc1 | inactive: 1.1%
c1nnnn1CCn1cnnn1 | inactive: 0.43%
O=P(Nc1ccccn1)(c1ccc(Br)cc1)c1ccc(Br)cc1 | inactive: 0.07%
CN(C)C1(CNC(=O)c2ccc(Cl)c(S(N)(=O)=O)c2)CCCCC1 | inactive: -1.99%
COc1ccc(N)c([N+](=O)[O-])c1[N+](=O)[O-] | inactive: 15.1%
Nc1ccc(CCCCOc2ccccc2)cc1 | inactive: 3.09%

SMILES | inhibition
C[C@H]1OP(=O)(Oc2ccccc2)[C@H](O)[C@H](O)[C@H]1N=[N+]=[N-] (some centres not stated) | inactive: 4.32%
O=P(Nc1nc2ccccc2s1)(c1ccccc1)c1ccccc1 | inactive: -11.9%
O=[As](O)(c1ccccc1)c1ccc(O)cc1 | inactive: 8.63%
CC(=O)NC(SC(=S)N(C)C)C(Cl)(Cl)Cl (configuration not stated) | inactive: 7.94%
O=[N+]([O-])c1ncn(CCn2cnc([N+](=O)[O-])n2)n1 | inactive: 4.52%
O=C(OC1CN2CCC1CC2)c1cccc(Cl)c1 (configuration not stated) | inactive: -2.4%
C(Cc1nn[nH]n1)Cc1nn[nH]n1 | inactive: 0.86%
Nc1ccc([As](=O)(O)c2ccc([N+](=O)[O-])cc2)cc1 | inactive: -2.15%
C/C(N)=N\P(=O)(OCc1ccccc1)OCc1ccccc1 | inactive: 4.45%
CC1CCC(C(C)C)C(OP(=O)(Nc2ccccn2)c2ccccc2)C1 (configuration not stated) | inactive: 2.75%
Cc1ccc(C(=O)OC2CN3CCC2CC3)cc1 (configuration not stated) | inactive: 0.46%
Cc1nn(-c2ccccc2)c2c1P(=O)(N1CCOCC1)N(C)C(c1ccccc1)=N2 (configuration not stated) | inactive: -3.24%
CN(C)C1(CNC(=O)c2ccc(S(C)(=O)=O)cc2)CCCCC1 | inactive: 4.9%
CCCC1OP(=O)(Nc2ccccc2)OCC1CC (configuration not stated) | inactive: 8.84%
O=C(/C=C/c1ccccc1)OC1CN2CCC1CC2 (configuration not stated) | inactive: -12.3%
Cc1ccc(S(=O)(=O)N(CCCN)CCCc2c(C)nc(N)[nH]c2=O)cc1 | inactive: -2.78%
O=P1(Nc2ncccn2)COc2ccccc2OC1 | inactive: 1.22%
Nc1cccc([As](=O)(O)c2ccccc2)c1 | inactive: -4.34%
Cc1ccc(OCC(=O)OC2CN3CCC2CC3)cc1 (configuration not stated) | inactive: 0.28%
O=[As](O)(c1cccs1)c1cccs1 | inactive: 10.6%
O=P1(Nc2ccc(Br)cn2)COc2ccccc2OC1 | inactive: 2.24%
NS(=O)(=O)c1cccc(NC(=O)COC(=O)C(O)(c2ccccc2)c2ccccc2)c1 | inactive: -14.7%
CCOP(=O)(NC(=NC(C)c1ccccc1)NC(C)c1ccccc1)OCC (configuration not stated) | inactive: -1.03%
O=P1(Nc2ccccn2)COc2ccccc2OC1 | inactive: -0.71%
